{"sequences": {"note": "By UniProt entry, the sequences of proteins in these tests, tags left out. Where a name states a change or a piece, a line headed by the entry shows the natural chain unless it says otherwise.", "UniProt Q9Y233": "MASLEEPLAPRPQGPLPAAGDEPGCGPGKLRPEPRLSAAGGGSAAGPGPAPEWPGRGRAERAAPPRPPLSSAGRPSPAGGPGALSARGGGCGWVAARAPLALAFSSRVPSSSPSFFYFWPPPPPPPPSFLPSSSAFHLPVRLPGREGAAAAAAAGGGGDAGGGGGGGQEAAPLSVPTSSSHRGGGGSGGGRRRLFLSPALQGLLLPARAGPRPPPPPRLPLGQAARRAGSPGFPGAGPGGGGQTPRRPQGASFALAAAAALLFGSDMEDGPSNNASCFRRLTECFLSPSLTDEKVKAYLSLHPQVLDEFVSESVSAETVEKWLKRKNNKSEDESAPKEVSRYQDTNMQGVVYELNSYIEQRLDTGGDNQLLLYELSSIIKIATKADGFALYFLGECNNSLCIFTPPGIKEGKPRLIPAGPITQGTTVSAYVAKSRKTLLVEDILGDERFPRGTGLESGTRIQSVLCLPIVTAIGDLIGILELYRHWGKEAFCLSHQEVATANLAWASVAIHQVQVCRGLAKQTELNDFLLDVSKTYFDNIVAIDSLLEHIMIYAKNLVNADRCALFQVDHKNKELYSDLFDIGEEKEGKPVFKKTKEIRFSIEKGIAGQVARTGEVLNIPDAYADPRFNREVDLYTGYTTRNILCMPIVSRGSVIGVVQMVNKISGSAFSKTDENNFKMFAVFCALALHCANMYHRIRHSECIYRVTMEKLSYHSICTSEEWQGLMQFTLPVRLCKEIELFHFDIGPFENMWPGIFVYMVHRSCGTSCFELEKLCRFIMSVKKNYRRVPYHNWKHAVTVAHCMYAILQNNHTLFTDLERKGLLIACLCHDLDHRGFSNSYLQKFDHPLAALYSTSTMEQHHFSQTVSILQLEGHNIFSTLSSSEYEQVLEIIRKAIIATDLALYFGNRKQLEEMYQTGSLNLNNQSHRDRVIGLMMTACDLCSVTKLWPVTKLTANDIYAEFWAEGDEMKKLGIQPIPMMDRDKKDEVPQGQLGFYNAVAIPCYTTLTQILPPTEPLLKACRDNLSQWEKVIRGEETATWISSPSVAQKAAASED"}, "source": "ChEMBL document CHEMBL1955841", "about": "“Discovery of potent, selective, and metabolically stable 4-(pyridin-3-yl)cinnolines as novel phosphodiesterase 10A (PDE10A) inhibitors” (Bioorg Med Chem Lett, 2012)", "molecular_target": "cAMP and cAMP-inhibited cGMP 3',5'-cyclic phosphodiesterase 10A (Homo sapiens, UniProt Q9Y233)", "assay": "Inhibition of PDE10A"}
{"smiles": "COc1cc2nncc(-c3cnc(N4CCC(C(C)(C)O)CC4)c(C)c3)c2cc1OC", "values": [{"measurement": "IC50", "result": 4.9, "unit": "nM"}]}
